# Binding of CDR-mutated scFvs to a peptide of the spike HR2 region

Source: Li et al. 2023 (doi:10.1038/s41467-023-39022-2), MIT Lincoln Laboratory and A-Alpha Bio; data file from the FLAb repository.

All variants were tested on one target, the spike HR2 peptide PDVDLGDISGINAS (SARS-CoV-2).

Each scFv is VH, a 15-residue (Gly4Ser)3 linker, VL, as in the parent Ab-14, and differs from it in the CDRs of the light chain only.
VH: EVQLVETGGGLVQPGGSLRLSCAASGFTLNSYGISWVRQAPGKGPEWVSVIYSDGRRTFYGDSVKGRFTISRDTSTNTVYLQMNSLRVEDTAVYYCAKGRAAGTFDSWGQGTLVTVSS
VL: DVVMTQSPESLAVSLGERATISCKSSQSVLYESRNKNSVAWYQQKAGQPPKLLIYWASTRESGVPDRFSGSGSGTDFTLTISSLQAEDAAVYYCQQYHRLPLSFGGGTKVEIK

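The starting antibody came from a phage panning campaign against this peptide. This is the validation round: designs drawn from the data on random variants, tested in the same kind of assay. Several design methods are mixed in this list. The assay is AlphaSeq: two haploid yeast populations carry antibody and antigen on their surface. Binding brings cells together so that they mate, and sequencing counts the barcode pairs among the diploids. The ratio of observed to expected reads was calibrated, replicate by replicate, on BCL2-family standards whose Kd was known from biolayer interferometry. Mating was done six times.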

The parent's light chain CDRs are KSSQSVLYESRNKNSVA, WASTRES, QQYHRLPLS; each variant's own CDRs replace them letter for letter.
This list holds designs with more than six substitutions.
Numbers give log10(Kd / nM), so 0 is 1 nM and 3 is 1 µM. Smaller is tighter.
Where no diploid with the target was found in that replicate, the entry reads "nd": below detection, most likely a poor binder, though not proof of it.

CDR-L1,CDR-L2,CDR-L3,"replicates, log10 nM"
SIYDATGMEQRNKNPIA,DVSTRPS,QQYDRLPLS,0.51 / -0.17 / -0.28 / 0.70 / 0.46 / 0.81
TISTSMRYESSLHNAIA,NAQTRES,QQYHRLPLS,0.17 / 0.33 / 0.11 / 0.17 / 0.21 / 0.48
MISQLYNMGTFAINSVA,QATIRNS,QQYDRLPLV,nd / 2.59 / nd / nd / nd / nd
KLSMLVDYMSATHSSVA,QTSTREN,QQYHRLPLS,0.19 / 0.42 / 0.47 / 0.29 / 0.24 / 0.78
KLRISTHIESFNKNNVA,EMTTRES,QSYDRLPLS,nd / nd / nd / nd / 1.37 / 2.19
KLVMSWQYESRNKNNVA,HASQRCS,QQYHRLPLS,0.27 / 0.31 / 0.26 / 0.16 / 0.13 / 0.44
QVQYAPGESLRSTQSIA,DVNIKDM,QQYARLPLS,2.47 / 1.75 / 3.77 / 1.81 / 1.72 / 3.08
TISQMTSLFQQSINNVA,EVTTREP,QQYDRLPLA,nd / nd / nd / nd / nd / nd
KVEQLHLYESRNKNAVA,QGSTRES,QQYHRLPLS,0.69 / 0.42 / 0.46 / -0.07 / 0.66 / 0.85
AFTQSIFYGQRDDNSIA,HADELVK,QQYDRFPLA,nd / 2.05 / 2.10 / 1.72 / 2.74 / 2.45
KLDNWQLGESRNKNSVA,SASTRCS,QQYHRLPLS,0.37 / 0.31 / -0.12 / -0.05 / 0.14 / 0.21
KISQMMRVGSTHQNSIA,EVATRSK,QQYHRLPLA,nd / nd / nd / nd / nd / 2.52
SLAYTQHFGQTQEKAIA,EVATRCQ,QQYFRLPLG,1.10 / 0.70 / 0.76 / 0.78 / 0.72 / 0.89
KFSQGYPYEQRNKNSVA,NASQRES,QQYHRLPLS,-0.22 / 0.09 / -0.16 / -0.30 / -0.27 / -0.10
HMSMLTLSGMYHRNSVA,QMTTREN,QQYDHLPLS,0.93 / 1.96 / 0.85 / 2.08 / 0.56 / 1.11
KLGGEQQNSTYEMDNVA,DVNTTYE,QHYSRLPLT,2.60 / nd / nd / nd / nd / nd
HVESAMVESNAKKKNVA,NGQGRVE,QQYGRLPLQ,1.53 / 1.39 / 1.11 / 2.90 / 1.71 / 1.52
RIMPQLNVEGKNRNAVA,DGKEQVI,QHYARLPLS,1.76 / 2.35 / 1.87 / 1.97 / 1.90 / 1.61
IVSQLMLWGLHAKNSIA,EAVTRLN,QQYERLPLF,2.10 / nd / 0.93 / 1.96 / 2.39 / nd
IVSQLMLWGMHAKNSIA,EAETRLN,QQYERLPLF,0.87 / 1.61 / 1.78 / 0.35 / 0.97 / 0.96
MISQMYNMGQFAINSVA,QASERNE,QQYDRLPLQ,2.10 / 1.53 / 2.46 / 1.95 / 1.81 / 1.33
KLEGSHLYMSRNANSVA,NASTRMS,QQYHRLPLS,-0.30 / -0.41 / -0.52 / -0.54 / -0.39 / -0.28
RLQADDNGYEGMRNNVA,DGAMVRM,QQYARLPLM,0.49 / 0.73 / 0.61 / 0.70 / 0.74 / 0.79
MISQLYNMGQFAINSVA,QASIRNE,QQYDRLPLV,0.96 / 1.58 / 1.40 / 0.83 / 1.51 / 1.41
KLTMITGLEKVIGNNVA,EMETREE,QQYNRLPLS,0.51 / 0.72 / 0.89 / 0.38 / 0.99 / 0.98
KVPGSNLYESRNKNSVA,HASTRCS,QDYHRLPLS,0.21 / 0.21 / 0.06 / 0.12 / 0.11 / 0.17
KVSQTFNVGTKNKNSLA,EMSTREF,QDYHRLPLS,1.16 / 1.41 / 1.74 / 1.70 / 0.82 / 0.75
MISQLYNMGQFAINSVA,QAETRCN,QQYDRLPLM,2.19 / 1.41 / 1.08 / 1.45 / 1.66 / 2.35
KLVGDMQEDKNPSENIA,EMSSVEQ,QQYSRLPLE,nd / nd / nd / 3.23 / 3.43 / nd
MLSQMWALGMKVSNSVA,QASMRFN,QQYDRLPLI,nd / nd / 1.29 / nd / nd / 2.23
KLDFLGPYEQRNKNSVA,SASLRES,QQYHRLPLS,-0.18 / -0.35 / -0.49 / -0.59 / -0.49 / -0.32
KLSMMDLYESRMSNSVA,MASTREK,QQYHRLPLS,0.92 / 0.61 / 1.19 / 0.85 / 0.76 / 1.43
IISQVDAYLSRNKNSIA,DQSTRGS,QQYDRLPLS,0.82 / 0.48 / 0.18 / 0.54 / 0.44 / 0.55

The first 3 entries again:

{"CDR-L1": "SIYDATGMEQRNKNPIA", "CDR-L2": "DVSTRPS", "CDR-L3": "QQYDRLPLS", "replicates, log10 nM": "0.51 / -0.17 / -0.28 / 0.70 / 0.46 / 0.81"}
{"CDR-L1": "TISTSMRYESSLHNAIA", "CDR-L2": "NAQTRES", "CDR-L3": "QQYHRLPLS", "replicates, log10 nM": "0.17 / 0.33 / 0.11 / 0.17 / 0.21 / 0.48"}
{"CDR-L1": "MISQLYNMGTFAINSVA", "CDR-L2": "QATIRNS", "CDR-L3": "QQYDRLPLV", "replicates, log10 nM": "nd / 2.59 / nd / nd / nd / nd"}

The parent sequence was in this pool as ten entries: three were never detected, three once, and four in most replicates, with averages from 0.34 to 2.37.
The range of this assay differs from that of the first round, and the authors advise against merging the two.
In the paper, a design with two or fewer of six values counts as a poor binder.
Nonspecific signal, from three strains lacking the peptide, appeared in 4% of pairings of all light chain designs, centred on 2.64 (5% of these signals below 1.59); values are not corrected for it.